Experiments:
[1] = tested on: MDA-MB-231 triple negative breast cancer cell line; assay: Cytotoxicity in TTK-expressed MDA-MB-231 cells; conditions: read-out: IC50 (nM) in MDA-MB-231, 5 days
Method: To determine the cytotoxicity of a compound represented by Chemical Formula 1 according to the present invention to MDA-MB-231 cells, the following test was conducted.
MDA-MB-231 triple negative breast cancer cell line purchased from ATCC was inoculated into each well of a 96-well plate at a volume of 90 μL containing 2,000 cells. Thereafter, an example compound of the present invention was added to respective wells at concentrations of 10 μM, 3 μM, 1 μM, 0.3 μM, 0.1 μM, and 0 μM, and the cells were cultured in a cell incubator at 37° C. for 5 days. Five days later, 10 μL of Cyto X solution (manufacturer: LPS Solution) was added to each of the wells, and the absorbance was measured at 450 nm using an Epoch microplate spectrophotometer (manufacturer: BioTek Instruments Inc.) according to the product's user guide. For cytotoxicity, the IC50 value for cytotoxicity of each compound was calculated by quantifying the number of cells using the measured value.

[2] = tested on: HCT116 colon cancer cell line; assay: Cytotoxicity in TTK-expressed HCT116 cells; conditions: read-out: IC50 (nM) in HCT116, 5 days
Method: To determine the cytotoxicity of a compound represented by Chemical Formula 1 according to the present invention to HCT116 cells, the following test was conducted.
HCT116 colon cancer cell line purchased from ATCC was inoculated into each well of a 96-well plate at a volume of 90 μL containing 2,000 cells. Thereafter, an example compound of the present invention was added to respective wells at concentrations of […], 3 μM, 1 μM, 0.3 μM, 0.1 μM, and 0 μM, and the cells were cultured in a cell incubator at 37° C. for 5 days. After 5 days, the number of cells was measured by CCK8 test method, and the cytotoxicity was determined by calculating the IC50 value for cytotoxicity of each compound.

In the case of `COc1cc(N2CCOCC2)ccc1Nc1nc(NC2CCN(C)CC2)c2c(-c3cnn(C)c3)n[nH]c2n1`, the IC50 [1] is reported as 500 to 1000 nM and the IC50 [2] is reported as > 1000 nM.
